# Apparent affinities of Ab-14 variants for a coronavirus HR2 peptide

From the AlphaSeq antibody data of Engelhart et al. 2022 (doi:10.1038/s41597-022-01779-4), copy in the FLAb collection.

Target: peptide PDVDLGDISGINAS, taken from heptad repeat 2 (HR2) of SARS-CoV-2 spike.

Parent: Ab-14, a human scFv built as VH, a (GGGGS)3 linker, VL. Only the CDRs of the heavy chain vary.
VH: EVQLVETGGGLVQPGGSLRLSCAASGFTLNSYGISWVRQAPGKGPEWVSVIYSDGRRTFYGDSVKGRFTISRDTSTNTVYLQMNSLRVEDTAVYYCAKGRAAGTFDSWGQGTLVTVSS
VL: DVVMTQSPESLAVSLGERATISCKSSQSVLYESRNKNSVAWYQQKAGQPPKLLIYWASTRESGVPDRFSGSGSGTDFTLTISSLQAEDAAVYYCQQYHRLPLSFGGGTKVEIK

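Library AAYL49 holds single substitutions and randomly drawn double and triple substitutions in the CDRs. In AlphaSeq, yeast of one mating type display the scFv and yeast of the other type display the target. Binding brings cells together so that they mate, and sequencing counts the barcode pairs among the diploids. The ratio of observed to expected reads was calibrated, replicate by replicate, on BCL2-family standards whose Kd was known from biolayer interferometry. Mating was done three times.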

Substitutions are numbered in sequence along the VH above, starting at 1 (not Kabat). The Kd shown is the geometric mean over detected replicates; a lower Kd is a better binder. Where no diploid with the target was found in any replicate, the entry reads "no signal": below detection, most likely a poor binder, though not proof of it. As a blank, each scFv also met three strains without target: over library AAYL49, 15% of these pairings were detected, typically at 11 µM and seldom below 680 nM. Also given: how often the same scFv was detected with the empty control strains.

Kd	replicates with signal	signal with controls	changes
no signal	0/3	1/9	D54T/G103F
13 µM	2/3	2/9	G26K/G55V/G99H
5.3 µM	2/3	4/9	R57P/Y60N/T104H
650 nM	1/3	0/9	I51S/F105G/D106G
no signal	0/3	2/9	Y32T/G61S/D62F
16 µM	1/3	1/9	G26L/G33V/S63D
no signal	0/3	0/9	N30P/G99H/A101W
9.7 µM	1/3	0/9	S31Y/Y32T/G103F
no signal	0/3	1/9	I34G/G55K/G99V
3.2 µM	1/3	0/9	Y52L/A102E/D106I
13 µM	1/3	0/9	G26Q/I51W/K65Y
120 µM	1/3	2/9	S31L/Y60M/T104P
no signal	0/3	0/9	S53I/D62K/F105A
no signal	0/3	3/9	I34F/D54Y/G55T
8.7 µM	1/3	3/9	T58A/Y60T/F105V
130 µM	1/3	0/9	L29N/D54A/G103F
no signal	0/3	1/9	D54W/F59A/S107D
no signal	0/3	1/9	D54I/R100Q
99 µM	2/3	1/9	G26I/N30V/G55D
25 µM	1/3	0/9	G26Q/D62F/F105G
no signal	0/3	4/9	L29C/D54T/D106E
160 µM	1/3	1/9	Y52D/D54I/G103E
5.4 µM	1/3	2/9	V50P/G55W/G103Y
28 nM	3/3	0/9	K65H/A102I
no signal	0/3	0/9	T28F/Y32W/T58Y
no signal	0/3	1/9	T28P/G99I/S107C
1.2 mM	1/3	0/9	R57S/V64Q/G103N
11 nM	3/3	0/9	T28K/K65M/G103A
780 µM	1/3	1/9	Y32Q/I34M/Y60S
no signal	0/3	0/9	I34S/R56T/G61Y
no signal	0/3	1/9	I34A/G103N/F105I
no signal	0/3	1/9	L29T/R56P/F105K
no signal	0/3	1/9	R56C/F59P
24 µM	1/3	2/9	G33S/Y52G/G61Q
820 nM	1/3	0/9	Y32C/S63M/D106I
140 nM	3/3	0/9	T58R/F59E/K65L
no signal	0/3	0/9	L29F/I34N/G103Y
220 µM	1/3	3/9	N30W/G33N/D54C
2.9 µM	2/3	3/9	G33E/Y52H/D106L
no signal	0/3	0/9	L29T/I34W/G55E
no signal	0/3	1/9	N30Q/R100T/F105R
no signal	0/3	0/9	Y52M/K65N
no signal	0/3	3/9	S35K/T58Y/K65L
no signal	0/3	2/9	S35K/Y60S/D106C
21 µM	1/3	2/9	I34A/F59E/D106T
400 µM	2/3	5/9	N30R/S53L/F59R
1.3 µM	1/3	0/9	N30T/G55H/T58D
no signal	0/3	0/9	I51G/R57Q/D62L
19 µM	1/3	1/9	S63K/R100V/F105C
550 µM	2/3	4/9	L29Y/Y32T/A101I
no signal	0/3	0/9	F27A/S35Q/S53H
370 nM	3/3	0/9	L29S/F59G

Picked from the list: the 4 lowest averages where every replicate gave a value.

changes,Kd,replicates with signal,signal with controls
T28K/K65M/G103A,11 nM,3/3,0/9
K65H/A102I,28 nM,3/3,0/9
T58R/F59E/K65L,140 nM,3/3,0/9
L29S/F59G,370 nM,3/3,0/9

For reference, the parent read 4.4 nM as the reference entry and 13 µM (one replicate of three) as a member of this library.